The values below come from PMC5248655 (ACS chemical neuroscience, 2015).

The subject of this assay is Sprague–Dawley male rats. Put plainly: Brain efflux index. The note with it: aged rats (24 months) after 26 day treatment; absolute value reached.

Take `CCN(C)C(=O)Oc1cccc([C@H](C)N(C)C)c1` [rivastigmine, rivastigmine L-tartrate]: the “^125I-Aβ40 BEI%” value worked out at 67%.
